BindingDB's records for doi:10.1021/jm8010993

Sequences of proteins named here, by UniProt entry; tags and fusion partners are left off.
UniProt P23975, whole entry: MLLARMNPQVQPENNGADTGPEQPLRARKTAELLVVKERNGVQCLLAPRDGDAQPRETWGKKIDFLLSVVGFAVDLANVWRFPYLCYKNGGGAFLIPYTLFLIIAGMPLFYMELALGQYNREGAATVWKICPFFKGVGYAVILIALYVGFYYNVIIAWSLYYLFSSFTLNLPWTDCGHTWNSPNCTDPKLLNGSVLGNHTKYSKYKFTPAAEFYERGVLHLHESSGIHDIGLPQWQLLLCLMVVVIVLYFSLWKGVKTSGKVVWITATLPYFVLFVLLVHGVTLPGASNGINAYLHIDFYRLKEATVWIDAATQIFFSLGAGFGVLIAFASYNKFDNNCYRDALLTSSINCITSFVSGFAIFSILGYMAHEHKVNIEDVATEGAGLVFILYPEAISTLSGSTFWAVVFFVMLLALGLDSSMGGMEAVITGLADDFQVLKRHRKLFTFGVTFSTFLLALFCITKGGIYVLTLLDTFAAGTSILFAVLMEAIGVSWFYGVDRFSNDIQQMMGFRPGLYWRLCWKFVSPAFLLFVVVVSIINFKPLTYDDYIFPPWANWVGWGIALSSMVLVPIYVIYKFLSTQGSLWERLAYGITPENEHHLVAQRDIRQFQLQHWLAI

Molecular target: Sodium-dependent noradrenaline transporter (Homo sapiens, UniProt P23975)
Experiment: PDE4 Enzyme Assay

Question: Which EC50 does the source give for `COc1ccc(F)cc1CCCC1CCC(CCN)O1` (stereo unspecified) here?
Answer: 1930 nM
